Reference: US20260242371A1, “LIPID PRODRUGS OF BROM[…] USES THEREOF” (priority 2023, published 2026)

assay: In vitro release of 2-bromo-LSD from lipid prodrugs in human plasma supplemented with lipoprotein lipase; details: 40 μM prodrug, human plasma with LPL, 0-180 minutes, 37° C.

Row | Structure (SMILES) | % 2-Br-LSD present at end of experiment
1 | CCCCCCCC/C=C\CCCCCCCC(=O)OCC(COC(=O)CCCCCCC/C=C\CCCCCCCC)OC(=O)CC(C)CC(=O)n1c(Br)c2c3c(cccc31)C1=C[C@@H](C(=O)N(CC)CC)CN(C)[C@@H]1C2 (stereo partly drawn) [Compound I-1, 2BL-C5bMe-2-TG-oleate] | + (+ representing a percentage of 2-bromo-LSD of less than 5%)
2 | CCCCCCCC/C=C\CCCCCCCC(=O)OCC(COC(=O)CCCCCCC/C=C\CCCCCCCC)OC(=O)CC(C)CCCCC(=O)n1c(Br)c2c3c(cccc31)C1=C[C@@H](C(=O)N(CC)CC)CN(C)[C@@H]1C2 (stereo partly drawn) [Compound I-2, 2BL-C8bMe-2-TG-oleate] | +++ (+++ representing a percentage of 2-bromo-LSD greater than 25%)
3 | CCCCCCCC/C=C\CCCCCCCC(=O)OCC(COC(=O)CCCCCCC/C=C\CCCCCCCC)OC(=O)CC(C)CC(=O)OCn1c(Br)c2c3c(cccc31)C1=C[C@@H](C(=O)N(CC)CC)CN(C)[C@@H]1C2 (stereo partly drawn) [Compound I-4, 2BL-ASI-C5bMe-2-TG-oleate] | +++ (+++ representing a percentage of 2-bromo-LSD greater than 25%)
4 | CCCCCCCC(=O)OCC(COC(=O)CCCCCCC)OC(=O)CC(C)CC(=O)OCOC(=O)n1c(Br)c2c3c(cccc31)C1=C[C@@H](C(=O)N(CC)CC)CN(C)[C@@H]1C2 (stereo partly drawn) [Compound I-7, 2BL-CASI-C5bMe-2-TG-octanoate] | +++ (+++ representing a percentage of 2-bromo-LSD greater than 25%)
5 | CCCCCCCC(=O)OCC(COC(=O)CCCCCCC)OC(=O)CC(C)(C)CC(=O)OCOC(=O)n1c(Br)c2c3c(cccc31)C1=C[C@@H](C(=O)N(CC)CC)CN(C)[C@@H]1C2 [Compound I-9, 2BL-CASI-C5bbGMe-2-TG-octanoate] | +++ (+++ representing a percentage of 2-bromo-LSD greater than 25%)
6 | CCCCCCCC/C=C\CCCCCCCC(=O)OCC(COC(=O)CCCCCCC/C=C\CCCCCCCC)OC(=O)CC(C)CC(=O)OCCCC(=O)n1c(Br)c2c3c(cccc31)C1=C[C@@H](C(=O)N(CC)CC)CN(C)[C@@H]1C2 (stereo partly drawn) [Compound I-14, 2BL-FSI4-C5bMe-2-TG-oleate] | +++ (+++ representing a percentage of 2-bromo-LSD greater than 25%)
7 | CCCCCCCC(=O)OCC(COC(=O)CCCCCCC)OC(=O)CC(C)(C)CC(=O)OCCCC(=O)n1c(Br)c2c3c(cccc31)C1=C[C@@H](C(=O)N(CC)CC)CN(C)[C@@H]1C2 [Compound I-15, 2BL-FSI4-C5bbGMe-2-TG-octanoate] | +++ (+++ representing a percentage of 2-bromo-LSD greater than 25%)
8 | CCCCCCCC(=O)OCC(COC(=O)CCCCCCC)OC(=O)CC(C)(C)CC(=O)OCCCCC(=O)n1c(Br)c2c3c(cccc31)C1=C[C@@H](C(=O)N(CC)CC)CN(C)[C@@H]1C2 [Compound I-16, 2BL-FSI5-C5bbGMe-2-TG-octanoate] | +++ (+++ representing a percentage of 2-bromo-LSD greater than 25%)
9 | CCCCCCCC/C=C\CCCCCCCC(=O)OCC(COC(=O)CCCCCCC/C=C\CCCCCCCC)OC(=O)CC(C)CC(=O)OCCCCC(=O)n1c(Br)c2c3c(cccc31)C1=C[C@@H](C(=O)N(CC)CC)CN(C)[C@@H]1C2 (stereo partly drawn) [Compound I-17, 2BL-FSI5-C5bMe-2-TG-oleate] | +++ (+++ representing a percentage of 2-bromo-LSD greater than 25%)
10 | CCCCCCCC(=O)OCC(COC(=O)CCCCCCC)OC(=O)CC1(CC(=O)OCCCCC(=O)n2c(Br)c3c4c(cccc42)C2=C[C@@H](C(=O)N(CC)CC)CN(C)[C@@H]2C3)CC1 [Compound I-18, 2BL-FSI5-C5bcPr-2-TG-octanoate] | +++ (+++ representing a percentage of 2-bromo-LSD greater than 25%)
11 | CCCCCCCC(=O)OCC(COC(=O)CCCCCCC)OC(=O)CC(C)(C)CCC(=O)OCCCCC(=O)n1c(Br)c2c3c(cccc31)C1=C[C@@H](C(=O)N(CC)CC)CN(C)[C@@H]1C2 [Compound I-19, 2BL-FSI5-C6bbGMe-2-TG-octanoate] | +++ (+++ representing a percentage of 2-bromo-LSD greater than 25%)
12 | CCCCCCCC/C=C\CCCCCCCC(=O)OCC(COC(=O)CCCCCCC/C=C\CCCCCCCC)OC(=O)CC(C)CC(=O)Oc1ccc(Cn2c(Br)c3c4c(cccc42)C2=C[C@@H](C(=O)N(CC)CC)CN(C)[C@@H]2C3)cc1 (stereo partly drawn) [Compound I-20, 2BL-PHB-C5bMe-2-TG-oleate] | + (+ representing a percentage of 2-bromo-LSD of less than 5%)
13 | CCCCCCCC/C=C\CCCCCCCC(=O)OCC(COC(=O)CCCCCCC/C=C\CCCCCCCC)OC(=O)CC(C)CC(=O)Oc1ccc(COC(=O)n2c(Br)c3c4c(cccc42)C2=C[C@@H](C(=O)N(CC)CC)CN(C)[C@@H]2C3)cc1 (stereo partly drawn) [Compound I-21, 2BL-CPHB-C5bMe-2-TG-oleate] | +++ (+++ representing a percentage of 2-bromo-LSD greater than 25%)
14 | CCCCCCCC(=O)OCC(COC(=O)CCCCCCC)OC(=O)CC(C)(C)CCC(=O)OCCCC(=O)n1c(Br)c2c3c(cccc31)C1=C[C@@H](C(=O)N(CC)CC)CN(C)[C@@H]1C2 [Compound I-22, 2BL-FSI4-C6bbGMe-2-TG-octanoate] | +++ (+++ representing a percentage of 2-bromo-LSD greater than 25%)
15 | CCCCCCCC(=O)OCC(COC(=O)CCCCCCC)OC(=O)CC(C)(C)CCC(=O)OCOC(=O)n1c(Br)c2c3c(cccc31)C1=C[C@@H](C(=O)N(CC)CC)CN(C)[C@@H]1C2 [Compound I-23, 2BL-CASI-C6bbGMe-2-TG-octanoate] | +++ (+++ representing a percentage of 2-bromo-LSD greater than 25%)
16 | CCCCCCCC/C=C\CCCCCCCC(=O)OCC(COC(=O)CCCCCCC/C=C\CCCCCCCC)OC(=O)CC(C)CCCCCCC(=O)n1c(Br)c2c3c(cccc31)C1=C[C@@H](C(=O)N(CC)CC)CN(C)[C@@H]1C2 (stereo partly drawn) [Compound I-24, 2BL-C10bMe-2-TG-oleate] | +++ (+++ representing a percentage of 2-bromo-LSD greater than 25%)
17 | CCCCCCCC(=O)OCC(COC(=O)CCCCCCC)OC(=O)CC1(CC(=O)OCn2c(Br)c3c4c(cccc42)C2=C[C@@H](C(=O)N(CC)CC)CN(C)[C@@H]2C3)CC1 [Compound I-25, 2BL-ASI-C5bcPr-2-TG-octanoate] | +++ (+++ representing a percentage of 2-bromo-LSD greater than 25%)
18 | CCCCCCCC(=O)OCC(COC(=O)CCCCCCC)OC(=O)CC1(CC(=O)n2c(Br)c3c4c(cccc42)C2=C[C@@H](C(=O)N(CC)CC)CN(C)[C@@H]2C3)CC1 [Compound I-26, 2BL-C5bcPr-2-TG-octanoate] | +++ (+++ representing a percentage of 2-bromo-LSD greater than 25%)
19 | CCCCCCCC(=O)OCC(COC(=O)CCCCCCC)OC(=O)CC(C)(C)CCC(=O)OCn1c(Br)c2c3c(cccc31)C1=C[C@@H](C(=O)N(CC)CC)CN(C)[C@@H]1C2 [Compound I-27, 2BL-ASI-C6bbGMe-2-TG-octanoate] | +++ (+++ representing a percentage of 2-bromo-LSD greater than 25%)
20 | CCCCCCCC(=O)OCC(COC(=O)CCCCCCC)OC(=O)CC1(CC(=O)OCOC(=O)n2c(Br)c3c4c(cccc42)C2=C[C@@H](C(=O)N(CC)CC)CN(C)[C@@H]2C3)CC1 [I-9′, 2BL-CASI-C5bcPr-2-TG-octanoate] | +++ (+++ representing a percentage of 2-bromo-LSD greater than 25%)
21 | CCCCCCCC(=O)OCC(COC(=O)CCCCCCC)OC(=O)CC1(CC(=O)OCCCC(=O)n2c(Br)c3c4c(cccc42)C2=C[C@@H](C(=O)N(CC)CC)CN(C)[C@@H]2C3)CC1 [I-15′, 2BL-FSI4-C5bcPr-2-TG-octanoate] | +++ (+++ representing a percentage of 2-bromo-LSD greater than 25%)
